# Compound activity (PubChem)
# UUG fidelity: modulators of start codon recognition fidelity in yeast; S. cerevisiae UUG-firefly luciferase reporter, luminescence/redox ratio; activity score, % at 18.7 µM; 0.13% of 350,000 active;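 active = replicate mean at a twofold rise or more, about +100% in these data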;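 also: firefly luciferase made from a UUG start codon reports start codon fidelity; reporter light over untreated wells divided by growth signal over untreated wells; some hits fall short of that in this replicate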
# ERp5 inh: ERp5 (human) disulfide isomerase inhibition | Q15084 | 0.05% of 350,000 active | ERp5 insulin aggregation, absorbance 650 nm, 90 min | AID 651711 | inhibition, % at 9.99 µM;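 active = mean replicate inhibition above about 25%, with every replicate also reaching it, limit read from the data, passing the limit was not always enough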
# SMARCA2 activ: SMARCA2 function activation, primary screen | 1% of 370,000 active | activation, % at 9.1 µM | AID 652017 | MG213 cells, MMTV-luciferase reporter, dexamethasone, overnight; in the data active = activation above about 7.8%;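 also: 0% = vehicle wells and 100% = reference activator wells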
# PDI turbidity: blocks human protein disulfide isomerase activity; PDI insulin aggregation turbidity, A650, 90 min; inhibition, % at 10 µM; 0.052% of 350,000 active; AID 588391;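 active = mean inhibition across replicates of 30% or more, whatever share of single replicates reach that level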
# Rev-erbA mod: modulates human Rev-erb alpha binding to DNA; P20393; Rev-erbα–FITC-DNA binding, fluorescence polarization, 90 min; activity, % at 10 µM; 0.79% of 370,000 active;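 active = activity above about 14%, limit read from the data; passing the limit was not always enough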;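 also: 0% = DMSO wells with 35 nM protein and 100% = DMSO wells with 750 nM protein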
# INS-1E GSIS act: primary screen for activators of insulin secretion dependent on glucose, INS-1E cells, GLuc reporter luminescence; activation, % at 16.6 µM; INS-1E GLuc reporter insulin secretion, 2-3 h; 0.61% of 370,000 active;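 active = lowest replicate activation of at least 40%, so every replicate reaches that level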;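 also: 0% = median of neutral control wells and 100% = median of IBMX positive control wells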
# SMARCA2 conf: SMARCA2 activation, confirmation screen; activation, % at 9.1 µM; AID 652260; 30% of 3,500 active; MG213 cells, MMTV-luciferase with dexamethasone, luminescence, overnight; MG213 cells expressing E1A, Rb sequestered; DMSO wells 0%, reference activator 100%; shares compounds with SMARCA2 activ;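 active = activation above its plate's cutoff, the mean activation of tested wells plus 3 SD, cut at about 7.9% in these data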
# VP16 Luc act: activates GAL4-VP16 luciferase, flagging SMARCA2 activator hits | shares compounds with SMARCA2 activ | HEK293 GAL4-VP16 pG5luc reporter, luciferase luminescence; scaled: DMSO wells 0%, SAHA wells 100% | activation, % at 9.1 µM | 41% of 3,500 active | AID 686939;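 active = activation above the solvent-only control well mean plus 3 SD, averaged across control plates, cut at about 5.2% in these data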
# * marks the source's active call; other numbers are inactive results; . = no result given. Only some compounds are listed: those with a hit (about 2.1% of all), similar ones and a draw of the others.
SMILES,UUG fidelity,ERp5 inh,SMARCA2 activ,PDI turbidity,Rev-erbA mod,INS-1E GSIS act,SMARCA2 conf,VP16 Luc act
CCCOc1ccc(C2C3=C(Nc4nc(N)[nH]c(=O)c42)c2ccccc2C3=O)cc1 (stereo not drawn),7.6,-1.3,-4.0,5.3,1.0,.,.,.
CCOc1ccc(C2C3=C(Nc4nc(N)[nH]c(=O)c42)c2ccccc2C3=O)cc1 (stereo not drawn),4.2,.,13.7*,-0.8,3.5,4.8,-0.5,0.5
COc1cccc(C(=O)NCC(=O)N/N=C/c2ccc3c(c2)OCO3)c1,-7.6,-5.5,8.0*,8.6,-4.5,22.7,1.8,0.4
COc1cccc(C(=O)NCC(=O)N/N=C/c2cccnc2)c1,-31.2,-1.0,-0.3,4.5,-5.9,-0.3,.,.
O=C(N/N=C/c1ccc2c(c1)OCO2)C1COc2ccccc2O1 (stereo not drawn),-9.0,-25.9,8.5*,-5.5,2.7,5.5,4.9,0.8
O=C(CCN1CCCCC1)NCC[C@@H]1CC[C@@H](NC(=O)C2CC2)[C@H](CO)O1,-3.2,7.6,.,.,.,4.1,.,.
COCC#Cc1cnc2c(c1)C(=O)N([C@H](C)CO)C[C@@H](C)[C@@H](CN(C)C)O2,-3.1,-10.7,.,.,.,18.0,.,.
COc1ccc(C2=NOC(C(=O)Nc3cc(Br)ccc3O)C2)cc1OC (stereo not drawn),-12.2,.,8.6*,-0.5,-5.5,.,-0.1,-0.9
O=C(C[C@H]1C[C@@H]2c3cc(NC(=O)Nc4ccccc4F)ccc3O[C@@H]2[C@H](CO)O1)NCc1ccc(Oc2ccccc2)cc1,-10.0,10.8,.,.,.,-4.8,.,.
Cc1noc(C)c1NC(=O)N(C)C[C@H]1Oc2ccc(NC(=O)CCCCCC(=O)Nc3ccccc3N)cc2C(=O)N([C@@H](C)CO)C[C@@H]1C,0.8,-5.1,.,.,.,9.9,.,.

# Overlap with the part before: 2 compounds, then new ones.
SMILES,UUG fidelity,ERp5 inh,SMARCA2 activ,PDI turbidity,Rev-erbA mod,INS-1E GSIS act,SMARCA2 conf,VP16 Luc act
O=C(C[C@H]1C[C@@H]2c3cc(NC(=O)Nc4ccccc4F)ccc3O[C@@H]2[C@H](CO)O1)NCc1ccc(Oc2ccccc2)cc1,-10.0,10.8,.,.,.,-4.8,.,.
Cc1noc(C)c1NC(=O)N(C)C[C@H]1Oc2ccc(NC(=O)CCCCCC(=O)Nc3ccccc3N)cc2C(=O)N([C@@H](C)CO)C[C@@H]1C,0.8,-5.1,.,.,.,9.9,.,.
C/C(CC(=O)Nc1ccc2c(c1)OCCO2)=N\NC(=O)c1ccccn1,.,8.2,9.5*,4.7,-3.8,9.0,1.5,1.5
CCC(=O)N/N=C(\C)CC(=O)Nc1ccc2c(c1)OCCO2,.,9.4,-2.9,5.2,5.1,-7.0,.,.
COc1ccc(NC(=O)C/C(C)=N/NC(=O)c2ccccn2)c(OC)c1,-27.9,-1.2,10.0*,-10.1,3.3,3.5,2.2,5.8*
C/C(CC(=O)Nc1ccc2c(c1)OCO2)=N\NC(=O)c1ccccc1N,-19.3,0.1,16.8*,-0.2,0.1,8.2,-1.6,2.3
C/C(CC(=O)Nc1ccc2c(c1)OCCO2)=N\NC(=O)c1ccccc1F,-10.8,-2.3,8.7*,-5.9,2.5,0.8,1.7,2.8
C/C=C/c1cnc2c(c1)C(=O)N([C@H](C)CO)C[C@H](C)[C@H](CN(C)S(=O)(=O)c1ccccc1)O2,-4.2,2.5,.,.,.,-6.5,.,.
O=C(NCC[C@H]1CC[C@H](NC(=O)Nc2cc(F)ccc2F)[C@@H](CO)O1)Nc1ccc(Cl)cc1,.,.,.,.,.,-7.3,.,.
COc1ccc2c3c(n(C)c2c1)[C@H](CO)N(C(=O)C1CCCCC1)CC31CCN(C)CC1,.,.,.,.,.,6.1,.,.
C/C(CC(=O)Nc1cc(C)cc(C)c1)=N\NC(=O)c1ccccn1,.,-0.9,9.8*,-2.4,-0.3,-16.2,-1.6,3.2
COc1ccc2c3c([nH]c2c1)[C@@H](CO)N(C(=O)Cc1ccccn1)CC31CCN(Cc2ccccn2)CC1,.,-9.7,.,.,.,-7.0,.,.

# Ordered by number of heavy atoms (highest first): part of the list above
SMILES,UUG fidelity,ERp5 inh,SMARCA2 activ,PDI turbidity,Rev-erbA mod,INS-1E GSIS act,SMARCA2 conf,VP16 Luc act
O=C(NCC[C@H]1CC[C@H](NC(=O)Nc2cc(F)ccc2F)[C@@H](CO)O1)Nc1ccc(Cl)cc1,.,.,.,.,.,-7.3,.,.
C/C(CC(=O)Nc1ccc2c(c1)OCCO2)=N\NC(=O)c1ccccc1F,-10.8,-2.3,8.7*,-5.9,2.5,0.8,1.7,2.8
CCC(=O)N/N=C(\C)CC(=O)Nc1ccc2c(c1)OCCO2,.,9.4,-2.9,5.2,5.1,-7.0,.,.

# Other records
SMILES,UUG fidelity,ERp5 inh,SMARCA2 activ,PDI turbidity,Rev-erbA mod,INS-1E GSIS act,SMARCA2 conf,VP16 Luc act
Cc1cc2[nH]c3c(c[n+](C)c4ccccc34)c2cc1C,.,-1.3,112.2*,12.0,4.6,-21.9,-15.7,-0.7
O=C(O)C1C(C(=O)Nc2ccc(Cl)cc2)C2C=CC1C21CC1 (stereo not drawn),-11.6,.,8.7*,19.3,-3.8,.,-0.7,3.1
C/C(=N\NC(=O)c1cccc(Cl)c1)c1cccc(NC(=O)c2ccco2)c1,.,.,5.9,1.2,-1.9,.,.,.
C/C(=N/NC(=O)c1ccco1)c1cccc(NC(=O)c2ccc(C)o2)c1,-23.8,.,8.8*,-4.9,4.8,.,-0.6,2.8
O=C(COC(=O)c1cccc(NC(=O)c2ccco2)c1)c1ccc(Br)cc1,-18.1,.,8.1*,0.8,1.3,.,9.5*,4.5
C/C(=N/NC(=O)c1ccc(Br)o1)c1cccc(NC(=O)c2ccc(C)o2)c1,6.7,.,12.9*,3.3,-2.2,-4.0,-0.5,2.8
CC(=O)Nc1cccc(/C(C)=N/NC(=O)c2ccc(O)cc2)c1,-3.3,-3.8,8.1*,1.0,5.1,-31.2,2.6,1.5
CO[C@@H]1CN(C)C(=O)c2ccc(NC(=O)NC(C)C)cc2OC[C@@H](C)N(Cc2cncnc2)C[C@@H]1C,.,.,.,.,.,25.3,.,.
Cc1noc(C)c1S(=O)(=O)Nc1ccc2c(c1)CC(=O)N([C@H](C)CO)C[C@@H](C)[C@@H](CN(C)S(=O)(=O)c1cn(C)cn1)O2,13.1,11.5,.,.,.,10.6,.,.
CCCC#Cc1ccc2c(c1)[C@H]1[C@H](CCN1S(=O)(=O)c1ccc(C)cc1)[C@H](CO)N2C,15.3,-5.5,.,.,.,12.1,.,.
COCCNC(=O)[C@H]1[C@H](CO)[C@H]2Cn3c(cccc3=O)[C@H]2N1Cc1ccccc1OC,.,-0.5,.,.,.,-1.8,.,.
C/C(=N\NC(=O)c1ccn(C)n1)c1cccc(NC(=O)c2ccc(C)s2)c1,26.1,4.0,15.6*,4.9,-4.0,-4.1,8.0*,6.0*
C/C(=N\NC(=O)c1cccc(C)c1)c1cccc(NC(=O)c2ccco2)c1,0.5,.,10.6*,-0.4,4.5,.,2.7,1.0
C/C(=N/NC(=O)c1ccco1)c1cccc(NC(=O)c2ccc(C)s2)c1,-7.2,3.0,6.4,-17.0,0.1,11.8,.,.
COc1cc(CN2CC3(CN(S(=O)(=O)c4cn(C)cn4)C3)c3c(n(C)c4cc(OC)ccc34)[C@@H]2CO)cc(OC)c1,.,0.1,.,.,.,-11.0,.,.
Cc1cc(C)nc(NC(=O)/C=C/c2cccs2)c1,0.4,3.7,8.8*,0.3,-2.9,5.3,5.6,9.9*
O=C(/C=C/c1cccs1)Nc1cccc(NC(=O)/C=C/c2cccs2)n1,-33.6,3.3,-1.4,3.1,2.6,.,.,.
O=S(=O)(N[C@H]1CC[C@H](CCn2cc(Cc3ccccc3)nn2)O[C@@H]1CO)c1ccccc1F,.,-0.3,.,.,.,-5.9,.,.
CCN(CC)CCn1c(=S)[nH]c2cc3c(cc2c1=O)OCO3,-11.4,.,8.7*,-4.1,-2.3,.,3.1,0.1
CC(=O)N1CC2(C1)[C@H](c1ccc(-c3ccccc3C)cc1)[C@H](CO)N2C(C)=O,.,-2.4,.,.,.,1.7,.,.
CCCC#Cc1ccc2c(c1)O[C@@H](CN(C)C(=O)Nc1ccccc1F)[C@H](C)CN([C@@H](C)CO)S2(=O)=O,.,1.9,.,.,.,-24.5,.,.
